Laboratory results from ChEMBL document CHEMBL5518242, “Discovery and Optimization of Novel Nonbile Acid FXR Agonists as Preclinical Candidates for the Treatment of Inflammatory Bowel Disease” (J Med Chem, 2024).
Calls of active or inactive are those of the source. No cut-off for these calls is given here.

Legend:
[1] = biological target: T1, Peroxisome proliferator-activated receptor alpha (Homo sapiens) (UniProt Q07869); assay: Agonist activity at Gal4-tagged human PPARalpha LBD expressed in HEK293T cells at 10 uM incubated for 24 hrs TR-FRET assay relative to control; assay type: cell-based; conditions: filed as agonist
T1 sequence (whole entry): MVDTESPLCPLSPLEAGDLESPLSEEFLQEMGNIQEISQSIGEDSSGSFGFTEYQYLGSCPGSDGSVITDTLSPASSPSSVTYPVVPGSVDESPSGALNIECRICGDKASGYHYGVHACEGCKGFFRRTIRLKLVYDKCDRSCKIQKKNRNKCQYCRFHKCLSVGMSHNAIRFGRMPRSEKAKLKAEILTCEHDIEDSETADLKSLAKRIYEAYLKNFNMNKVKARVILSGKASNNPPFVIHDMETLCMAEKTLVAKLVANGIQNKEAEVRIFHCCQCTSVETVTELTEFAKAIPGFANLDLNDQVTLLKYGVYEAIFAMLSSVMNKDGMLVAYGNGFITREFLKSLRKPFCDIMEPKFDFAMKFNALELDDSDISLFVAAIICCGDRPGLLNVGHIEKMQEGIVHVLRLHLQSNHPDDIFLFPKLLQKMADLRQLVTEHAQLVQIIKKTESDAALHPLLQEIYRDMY

Mus musculus [2] = assay: (§1) Anti-inflammatory activity in DSS-induced acute enteritis mouse model assessed as reduction in body weight loss at 150 mg/kg, po administered daily for 7 days and measured on day 8 in presence of 10 mg/kg 6-(2-(((5-cyclopropyl-3-(2-(trifluoromethoxy)phenyl)isoxazol-4-yl)methoxy)methyl)-7-azaspiro[3.5]nonan-7-yl)-1-ethyl-1H-indole-3-carboxylic acid; assay type: functional, organism-based; conditions: time 8.0 day
Mus musculus [3] = assay: Anti-inflammatory activity in DSS-induced acute enteritis mouse model assessed as improvement in inflammatory cell infiltration at 150 mg/kg, po administered daily for 7 days and measured on day 8 by H and E staining based assay; assay type: functional, organism-based; conditions: time 8.0 day
Mus musculus [4] = assay: Anti-inflammatory activity in DSS-induced acute enteritis mouse model assessed as increase in mucin production at 150 mg/kg, po administered daily for 7 days and measured on day 8 by immunohistochemical analysis; assay type: functional, organism-based; conditions: time 8.0 day
Mus musculus [5] = assay: Anti-inflammatory activity in DSS-induced acute enteritis mouse model assessed as reduction body weight loss at 150 mg/kg, po administered daily for 7 days and measured on day 8; assay type: functional, organism-based; conditions: time 8.0 day
Mus musculus [6] = assay: Anti-inflammatory activity in DSS-induced acute enteritis mouse model assessed as reduction disease score index at 150 mg/kg, po administered daily for 7 days and measured on day 8; assay type: functional, organism-based; conditions: time 8.0 day
Mus musculus [7] = assay: as §1, with “increase” for “reduction”, “colon length” for “body weight loss”; assay type: functional, organism-based; conditions: time 8.0 day
Mus musculus [8] = assay: Anti-inflammatory activity in DSS-induced acute enteritis mouse model assessed as improvement in crypts deformation at 150 mg/kg, po administered daily for 7 days and measured on day 8 by H and E staining based assay; assay type: functional, organism-based; conditions: time 8.0 day
Mus musculus [9] = assay: as §1, with “lower spleen index” for “reduction in body weight loss”; assay type: functional, organism-based; conditions: time 8.0 day
Mus musculus [10] = assay: Anti-inflammatory activity in DSS-induced acute enteritis mouse model assessed as increase in colon length at 150 mg/kg, po administered daily for 7 days and measured on day 8; assay type: functional, organism-based; conditions: time 8.0 day
Mus musculus [11] = assay: as §1, with “improvement” for “reduction”, “DAI score” for “body weight loss”; assay type: functional, organism-based; conditions: time 8.0 day
Mus musculus [12] = assay: Anti-inflammatory activity in DSS-induced acute enteritis mouse model assessed as improvement in goblet cell destruction at 150 mg/kg, po administered daily for 7 days and measured on day 8 by H and E staining based assay; assay type: functional, organism-based; conditions: time 8.0 day
Mus musculus [13] = assay: Anti-inflammatory activity in DSS-induced acute enteritis mouse model assessed as improvement in mucosal damage at 150 mg/kg, po administered daily for 7 days and measured on day 8 by H and E staining based assay; assay type: functional, organism-based; conditions: time 8.0 day

Compound | Activity [1] [%] | Activity (Mus musculus [2]) | Activity (Mus musculus [3]) | Activity (Mus musculus [4]) | Activity (Mus musculus [5]) | Activity (Mus musculus [6]) | Activity (Mus musculus [7]) | Activity (Mus musculus [8]) | Activity (Mus musculus [9]) | Activity (Mus musculus [10]) | Activity (Mus musculus [11]) | Activity (Mus musculus [12]) | Activity (Mus musculus [13])
CCn1cc(C(=O)O)c2ccc(N3CCC4(CC3)CC(COCc3c(-c5ccccc5OC(F)(F)F)noc3C3CC3)C4)cc21 | 72.6 |  |  |  |  |  |  |  |  |  |  |  | 
Nc1ccc(C(=O)O)c(O)c1 |  | Active | Active | Active | inactive | Active | Active | Active | Active | Active | Active | Active | Active
